Measurements reported in PMC4833811 (Amino Acids, 2016).

B2: GST-14-3-3ζ:ζ homodimer (natural protein, UniProt P63104 1-245, looked up)
chain: MDKNELVQKAKLAEQAERYDDMAACMKSVTEQGAELSNEERNLLSVAYKNVVGARRSSWRVVSSIEQKTEGAEKKQQMAREYREKIETELRDICNDVLSLLEKFLIPNASQAESKVFYLKMKGDYYRYLAEVAAGDDKKGIVDQSQQAYQEAFEISKKEMQPTHPIRLGLALNFSVFYYEILNSPEKACSLAKTAFDEAIAELDTLSEESYKDSTLIMQLLRDNLTLWTSDTQGDEAEAGEGGEN
B3: Ser19-phosphorylated human tyrosine hydroxylase 1 (enzyme)
chain: not shown
modifications: phosphoserine at 19 (by PRAK; 0.5 phosphates per subunit in the SPR experiments, 0.2-0.8 overall)
B4: GST-14-3-3η:η homodimer (natural protein, UniProt Q04917 1-246, looked up)
chain: MGDREQLLQRARLAEQAERYDDMASAMKAVTELNEPLSNEDRNLLSVAYKNVVGARRSSWRVISSIEQKTMADGNEKKLEKVKAYREKIEKELETVCNDVLSLLDKFLIKNCNDFQYESKVFYLKMKGDYYRYLAEVASGEKKNSVVEASEAAYKEAFEISKEQMQPTHPIRLGLALNFSVFYYEIQNAPEQACLLAKQAFDDAIAELDTLNEDSYKDSTLIMQLLRDNLTLWTSDQQDEEAGEGN
B5: GST-14-3-3β:β homodimer (natural protein, UniProt P31946 1-246, looked up)
chain: MTMDKSELVQKAKLAEQAERYDDMAAAMKAVTEQGHELSNEERNLLSVAYKNVVGARRSSWRVISSIEQKTERNEKKQQMGKEYREKIEAELQDICNDVLELLDKYLIPNATQPESKVFYLKMKGDYFRYLSEVASGDNKQTTVSNSQQAYQEAFEISKKEMQPTHPIRLGLALNFSVFYYEILNSPEKACSLAKTAFDEAIAELDTLNEESYKDSTLIMQLLRDNLTLWTSENQGDEGDAGEGEN
B6: GST-14-3-3γ:γ homodimer (natural protein, UniProt P61981 1-247, looked up)
chain: MVDREQLVQKARLAEQAERYDDMAAAMKNVTELNEPLSNEERNLLSVAYKNVVGARRSSWRVISSIEQKTSADGNEKKIEMVRAYREKIEKELEAVCQDVLSLLDNYLIKNCSETQYESKVFYLKMKGDYYRYLAEVATGEKRATVVESSEKAYSEAHEISKEHMQPTHPIRLGLALNYSVFYYEIQNAPEQACHLAKTAFDDAIAELDTLNEDSYKDSTLIMQLLRDNLTLWTSDQQDDDGGEGNN

Legend:
Details in all cases: both partners purified
[1] = target: B3; test: SPR; Biacore 3000; 14-3-3ε:ε immobilised by direct amine coupling (10 mM Na-acetate, pH 5.4), TH-pS19 flowed over; 25 °C, HBS-P buffer, 30 μl/min; Kd calculated as kd/ka
[2] = target: B3; test: SPR; Biacore 3000; GST-14-3-3 dimers held by GST capture, TH-pS19 flowed over; 25 °C, HBS-P buffer, 30 μl/min; Kd calculated as kd/ka
[3] = target: T1, 14-3-3ε:β heterodimer (UniProt P62258 1-255; P31946 1-246); test: as above
T1 construct: 14-3-3ε (YWHAE), as the chain of m2; 14-3-3β (YWHAB), as the chain of m6; Held by GST capture in SPR; source: E. coli, each purified; not shown: GST, N-terminal, kept; copies: 1 + 1
T1 sequence (looked up) 1: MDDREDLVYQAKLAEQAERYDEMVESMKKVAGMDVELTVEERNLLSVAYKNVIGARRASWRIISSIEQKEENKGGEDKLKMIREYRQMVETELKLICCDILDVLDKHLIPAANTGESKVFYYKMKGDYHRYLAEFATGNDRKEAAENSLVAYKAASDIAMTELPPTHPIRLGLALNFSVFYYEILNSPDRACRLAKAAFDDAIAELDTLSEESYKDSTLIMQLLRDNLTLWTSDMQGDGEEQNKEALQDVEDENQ
T1 sequence (looked up) 2: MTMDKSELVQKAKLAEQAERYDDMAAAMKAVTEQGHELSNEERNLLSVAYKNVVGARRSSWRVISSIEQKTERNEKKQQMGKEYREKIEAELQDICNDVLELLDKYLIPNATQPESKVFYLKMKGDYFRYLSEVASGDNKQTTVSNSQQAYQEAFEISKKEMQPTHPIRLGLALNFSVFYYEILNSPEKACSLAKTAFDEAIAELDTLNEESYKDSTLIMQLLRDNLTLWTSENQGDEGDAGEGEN

[4] = target: B6; test: as above
[5] = target: B2; test: as above
[6] = target: B4; test: as above
[7] = target: B5; test: as above
[8] = target: T2, 14-3-3ε:γ heterodimer (UniProt P62258 1-255; P61981 1-247); test: as above
T2 construct: 14-3-3ε (YWHAE), as the chain of m2; 14-3-3γ (YWHAG), as the chain of m3; Held by GST capture in SPR; source: E. coli, each purified; not shown: GST, N-terminal, kept; copies: 1 + 1
T2 sequence (looked up) 1: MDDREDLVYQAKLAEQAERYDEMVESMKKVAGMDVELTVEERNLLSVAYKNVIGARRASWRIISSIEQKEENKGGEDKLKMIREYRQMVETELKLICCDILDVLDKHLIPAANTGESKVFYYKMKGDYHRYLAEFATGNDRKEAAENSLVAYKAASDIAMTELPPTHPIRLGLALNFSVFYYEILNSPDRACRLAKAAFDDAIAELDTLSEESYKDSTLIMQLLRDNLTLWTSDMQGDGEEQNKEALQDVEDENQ
T2 sequence (looked up) 2: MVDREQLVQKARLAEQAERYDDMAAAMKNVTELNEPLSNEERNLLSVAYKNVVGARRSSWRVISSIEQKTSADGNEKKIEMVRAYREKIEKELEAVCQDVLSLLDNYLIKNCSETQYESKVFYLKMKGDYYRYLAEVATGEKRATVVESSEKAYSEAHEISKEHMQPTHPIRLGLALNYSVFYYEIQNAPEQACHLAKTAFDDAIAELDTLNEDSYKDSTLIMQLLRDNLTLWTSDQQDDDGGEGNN

[9] = target: T3, 14-3-3ε:ζ heterodimer (UniProt P62258 1-255; P63104 1-245); test: as above
T3 construct: 14-3-3ε (YWHAE), as the chain of m2; 14-3-3ζ (YWHAZ), as the chain of m4; Held by GST capture in SPR; thrombin-cleaved 14-3-3 in the activity assays; also called 14-3-3ζ:ε; source: E. coli, each purified; not shown: GST, N-terminal, kept; copies: 1 + 1
T3 sequence (looked up) 1: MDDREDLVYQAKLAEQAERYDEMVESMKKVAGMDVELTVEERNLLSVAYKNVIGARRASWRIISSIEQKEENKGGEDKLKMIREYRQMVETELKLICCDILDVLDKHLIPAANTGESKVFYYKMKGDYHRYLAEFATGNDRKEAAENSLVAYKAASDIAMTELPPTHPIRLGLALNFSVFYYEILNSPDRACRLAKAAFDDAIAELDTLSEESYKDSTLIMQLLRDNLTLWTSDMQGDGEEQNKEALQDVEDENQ
T3 sequence (looked up) 2: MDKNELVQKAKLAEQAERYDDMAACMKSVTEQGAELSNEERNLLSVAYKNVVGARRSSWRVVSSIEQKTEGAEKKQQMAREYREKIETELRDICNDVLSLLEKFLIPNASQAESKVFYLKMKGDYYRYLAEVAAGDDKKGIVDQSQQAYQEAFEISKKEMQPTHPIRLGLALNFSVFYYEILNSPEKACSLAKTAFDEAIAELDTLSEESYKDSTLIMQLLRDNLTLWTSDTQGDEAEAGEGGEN

[10] = target: T4, 14-3-3ε:η heterodimer (UniProt P62258 1-255; Q04917 1-246); test: as above
T4 construct: 14-3-3ε (YWHAE), as the chain of m2; 14-3-3η (YWHAH), as the chain of m5; Held by GST capture in SPR; source: E. coli, each purified; not shown: GST, N-terminal, kept; copies: 1 + 1
T4 sequence (looked up) 1: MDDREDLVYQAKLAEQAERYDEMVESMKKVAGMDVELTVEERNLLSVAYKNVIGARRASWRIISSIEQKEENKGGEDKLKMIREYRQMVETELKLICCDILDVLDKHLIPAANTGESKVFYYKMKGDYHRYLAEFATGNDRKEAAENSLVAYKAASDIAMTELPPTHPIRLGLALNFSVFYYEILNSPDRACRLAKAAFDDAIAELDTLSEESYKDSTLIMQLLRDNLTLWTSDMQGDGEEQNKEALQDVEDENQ
T4 sequence (looked up) 2: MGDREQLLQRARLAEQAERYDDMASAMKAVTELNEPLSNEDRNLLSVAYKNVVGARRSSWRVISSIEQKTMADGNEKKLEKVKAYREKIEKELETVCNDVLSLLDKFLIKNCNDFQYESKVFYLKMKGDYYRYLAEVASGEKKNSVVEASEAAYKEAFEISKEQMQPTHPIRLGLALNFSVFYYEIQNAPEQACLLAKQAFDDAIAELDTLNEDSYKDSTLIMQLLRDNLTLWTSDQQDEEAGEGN

B1: 14-3-3ε:ε homodimer (His-tagged) (natural protein, UniProt P62258 1-255, looked up)
chain: MDDREDLVYQAKLAEQAERYDEMVESMKKVAGMDVELTVEERNLLSVAYKNVIGARRASWRIISSIEQKEENKGGEDKLKMIREYRQMVETELKLICCDILDVLDKHLIPAANTGESKVFYYKMKGDYHRYLAEFATGNDRKEAAENSLVAYKAASDIAMTELPPTHPIRLGLALNFSVFYYEILNSPDRACRLAKAAFDDAIAELDTLSEESYKDSTLIMQLLRDNLTLWTSDMQGDGEEQNKEALQDVEDENQ
notes: 14-3-3ε (YWHAE); Plasmid from S.O. Døskeland; Immobilised by direct amine coupling in SPR; also called 14-3-3Ɛ; source: E. coli, pET11, purified (Ni-NTA)
Kd [1]: 2.8 nM | koff [1]: 0.00072 s⁻¹ | kon [1]: 260000 M⁻¹ s⁻¹

B2
Kd [2]: 2.9 nM | koff [2]: 0.00038 s⁻¹ | kon [2]: 130000 M⁻¹ s⁻¹

B3
Kd [3]: 2.5 nM | koff [3]: 0.0005 s⁻¹ | kon [3]: 200000 M⁻¹ s⁻¹ | t 0.5 (dissociation half time) [3]: 23 min | t 0.5 (dissociation half time) [4]: 12 min | t 0.5 (dissociation half time) [5]: 30 min | t 0.5 (dissociation half time) [6]: 26 min | t 0.5 (dissociation half time) [7]: 38 min | Kd [8]: 2.5 nM | koff [8]: 0.0005 s⁻¹ | kon [8]: 200000 M⁻¹ s⁻¹ | t 0.5 (dissociation half time) [8]: 23 min | Kd [9]: 3.8 nM | koff [9]: 0.00065 s⁻¹ | kon [9]: 170000 M⁻¹ s⁻¹ | t 0.5 (dissociation half time) [9]: 18 min | Kd [10]: 1.7 nM | koff [10]: 0.00048 s⁻¹ | kon [10]: 290000 M⁻¹ s⁻¹ | t 0.5 (dissociation half time) [10]: 24 min

B4
Kd [2]: 1.6 nM | koff [2]: 0.00044 s⁻¹ | kon [2]: 270000 M⁻¹ s⁻¹

B5
Kd [2]: 1.4 nM | koff [2]: 0.0003 s⁻¹ | kon [2]: 220000 M⁻¹ s⁻¹

B6
Kd [2]: 3 nM | koff [2]: 0.00094 s⁻¹ | kon [2]: 310000 M⁻¹ s⁻¹
